Experiments:
Caco-2 cell monolayer = experiment: Transcellular transport across Caco-2 cell monolayer
Procedure: The plates were incubated at 37 °C. […] All experiments were performed in triplicate.

[1] = In vitro CuB release (dialysis bag); format: physicochemical; conditions: PBS pH 6.8 with 0.5% SDS, 37 °C, 24 h
Procedure: The in vitro release behavior of CuB from CuB-MMs-CPs micelles was monitored in a phosphate buffered saline (PBS) (PH 6.8) medium containing 0.5% sodium dodecyl sulfate (SDS) to obtain pseudo sink conditions. Briefly, aliquots of CuB-MMs-CPs micelles were introduced into a dialysis bag (MWCO =2000 Da), the sealed end of which was immersed fully into 40 mL of a release medium at 37 °C. This medium was stirred at 100 rpm for 24 h. At fixed time intervals, 1 mL aliquots were withdrawn and replaced with an equal volume of fresh medium. CuB release from the stock solution was conducted under the same conditions as the controls. The concentration of CuB in the samples was determined by HPLC.

## Cucurbitacin B [CuB]
Caco-2 cell monolayer; 4 °C versus 37 °C
  Effect of temperature on quantity of cellular transportation, AP side to BL side: no significant effect
  Effect of temperature on quantity of cellular transportation, BL side to AP side: significantly reduced
Caco-2 cell monolayer; with chlorpromazine
  Effect of endocytosis inhibitor chlorpromazine on Caco-2 cell transportation: no significant effect
Caco-2 cell monolayer; with indomethacin
  Effect of endocytosis inhibitor indomethacin on Caco-2 cell transportation: no significant effect
Caco-2 cell monolayer; with sodium azide
  Effect of ATP inhibitor sodium azide on Caco-2 cell transport capacity of CuB: increased significantly
Caco-2 cell monolayer; with verapamil
  Effect of efflux inhibitor verapamil on Caco-2 cell transport capacity of CuB: increased significantly
[1]
  Release behaviour of CuB: initial burst release in 4 h

— article PMC6058667, “Modified mixed nanomicelles with collagen peptides enhanced oral absorption of Cucurbitacin B: preparation and evaluation” (Drug Delivery, 2018)
